# What was measured:
# By UniProt entry, the sequences of proteins in these tests, tags left out. Residues count along the entry.
# UniProt Q08210, 158-569: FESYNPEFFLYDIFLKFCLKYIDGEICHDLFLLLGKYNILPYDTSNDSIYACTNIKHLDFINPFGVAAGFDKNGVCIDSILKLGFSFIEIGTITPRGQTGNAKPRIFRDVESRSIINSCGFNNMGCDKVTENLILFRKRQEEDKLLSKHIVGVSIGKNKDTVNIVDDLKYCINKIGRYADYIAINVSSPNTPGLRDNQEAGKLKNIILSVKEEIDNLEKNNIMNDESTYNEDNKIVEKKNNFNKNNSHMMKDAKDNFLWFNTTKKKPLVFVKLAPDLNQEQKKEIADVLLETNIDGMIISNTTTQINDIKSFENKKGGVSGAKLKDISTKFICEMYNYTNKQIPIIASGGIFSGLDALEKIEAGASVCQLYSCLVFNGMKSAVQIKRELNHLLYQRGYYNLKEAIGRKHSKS
# [1] = In vitro human microsomal metabolism; conditions: estimated from measured rate of degradation in vitro
# [2] = Mouse pharmacokinetics after oral dosing; assay type: in vivo; conditions: mice, 50 mg/kg oral for 2 to 4 days
# PfDHODH = PfDHODH (Plasmodium falciparum, UniProt Q08210); conditions: PfDHODH vs human DHODH; cited from earlier work
compound,measurement,setting,value
"Cc1cc(Nc2ccc3ccccc3c2)n2ncnc2n1 [Compound 2, (5-methyl-[1,2,4]triazolo[1,5-a]pyrimidin-7-yl)-naphthalen-2-yl-amine]",Predicted EH (hepatic extraction ratio),[1],0.84
same,plasma concentrations after last dose of repeat dosing relative to single dose,[2],significantly reduced
same,selectivity for the malarial enzyme compared to human DHODH,PfDHODH,"greater than 4,000 fold"

# Source: article PMC2746568 (Journal of medicinal chemistry, 2009)
